Data taken from US20250145946A1, “GENERATION OF PURE RETINAL CELLS FROM HUMAN PLURIPOTENT STEM CELLS” (Wisconsin Alumni Research Foundation, priority 2023, published 2025).

What was measured:
[1] = tested on: H9 human embryonic stem cells (hESCs); assay: qPCR analysis of neural and retinal gene expression during hPSC neural/retina differentiation; type: cell-based
Protocol: hPSCs (H9, IMR-90-4 and WC30) were maintained under E8/feeder-free culture condition and passaged at 1:20 ratio with Rock inhibitor. After each new passage, the cells were fed with E8 medium for another 1˜2 days to reach 30-40% confluence. To initiate retina differentiation, culture medium was replaced with Retina Induction Medium (RIM) containing Neural induction medium (NIM) comprising DMEM/F12 media containing 1% N2 and 1× nonessential amino acids (NEAA) supplemented with 10 μM SB431542 (TGF inhibitor, Stemgent, 04-0010-10); this new passage day was counted as day 0 (DO) of retina differentiation. Cells were then fed daily with RIM, or every other day based on the cell density. On day 4, the cells were dissociated by ReLeSR (STEM CELL) or EDTA and re-suspended in the fresh RIM containing 0.5 micromolar (μM) Rock inhibitor. Cell clusters were thereafter transferred to a cell culture flask and cultured in suspension. On day 5, the resulting cell spheres were fed with RIM without SB431542. On day 6, the cell spheres were fed with Retina Specification Medium (RSM) containing NIM supplemented with 10 ng/ml BMP2 (R&D SYSTEMS, 355-BM) every other day till day 20. Typical optical cup structures can be observed as early as day 15; BMP2 can be replaced by BMP4 or BMP7. At day 20, the spheres were cultured in Transition medium (DMEM/F12: Neurobasal (1:1) with 1% N2, 2% B27, 1×NEAA and 1×Glutamax) until analysis.
Total RNA was isolated with the RNeasy Plus Mini Kit according to the manufacturer's instructions. For quantitative PCR (qPCR), cDNA was synthesized using PrimeScript RT Reagent Kit (Takara). qPCR was performed using iTaq Universal SYBR Green Supermix (Bio-Rad). GAPDH gene was used as an internal control to equalize cDNA.
In order to understand whether activation of the BMP pathway was required for switching the neuro/ectoderm to their retinal fate (because inhibition of TFG-beta, BMP, and/or WNT promotes neuroectoderm specification from hPSCs), the next step was to find how regulation of these pathways affected retinal specification. H9 human embryonic stem cells (hESCs) were differentiated to neuroepithelia by culture in chemically defined media as disclosed above and then treated with inhibitors against BMP (DMH1), TGF-beta (SB-431542, SB), or WNT (IWR1) pathways separately for 6 days during the neural induction process (FIG. 2a).
Due to the lack of retinal differentiation resulting from BMP inhibition, expression of retina genes was examined at multiple time points in SB and SB plus dorsomorphin homolog 1 (SB+DMH1), which was a well-established dual-SMAD inhibition condition for neural conversion (Chambers, S. M. et al., 2009, Nat Biotechnol 27:275-280). […] Because SOX1 expression was known to be absent in retinal progenitors (also shown in FIG. 7a), expression of SOX2 and SOX1 presented a simple determining marker for cortical vs. retinal progenitors. Over 80% of the differentiating cells were SOX1 and SOX2 double positive cells (definitive for neuroepithelial cells) under dual-SMAD inhibition conditions at day 12 while only 14% of cells in the SB condition were positive for expression of both these genes (FIG. 8a).
The finding that BMP inhibition blocked EFTF expression raised the question of whether BMP was sufficient for retinal differentiation. To determine whether this was the case, cells were treated with BMP2 (2 ng/ml) on day 6 and collected on day 12 (FIG. 3a). […] Correspondingly, expression of retinal lineage genes PAX6, SIX6 and VSX2 was increased (FIG. 11a).
Next, these cells were treated for 4 days with BMP2 starting from day 4, 5, 6 or 7 and retinal gene expression examined at day 12 to determine whether BMP specified retinal fate. […] Thereafter, e.g., at day 7, enhancement of retinal gene expression by BMP2 diminished (FIG. 11b). Thus, induction of retinal fate by BMP occurred at the primitive neuroepithelial stage when these cells were negative for SOX1. […]

hPSCs = assay: Single nucleus RNA-seq (snRNA-Seq) profiling of differentiating cells; type: cell-based, human
Protocol: Differentiating cells at multiple time points (day 0-day 12) indicated below were digested and collected for nucleus isolation and library construction (Tao et al., 2024, Nat. Biotech. 12:1404-1416; https://doi.org/10.1038/s41587-023-01977-4). All libraries prepared in this way were processed by NovaSeq. Alignment of raw sequencing reads, and generation of feature barcode matrices were performed using Cellranger (7.1.0). Seurat (4.1.3) was used to process feature barcode matrices and analyze snRNA-Seq data32. All samples were processed under standard quality control metrics. Single cells with more than 300 unique genes (nFeature) and less than 15% or 20% mitochondrial gene reads (percent.mt) were selected for follow-up analysis. Additional procedures were used to exclude low quality cells and doublets in each sample (nFeature<6,000 and nCount<20,000). In day 30 retina organoid samples, retinoic acid (RA) was used to accelerate retinogenesis from day 20. Early exposure to RA can caudalize progenitors towards the spinal cord region of the neural tube. Cells were filtered by removing HOXB3- and HOXB4-expressing cells to exclude possible caudalized cells in this sample. After quality control, all snRNA-Seq data were normalized using the SCTransform (v2) function in Seurat with mitochondria genes regressed out (Choudhary, S. et al., 2022, Genome Biol 23, 27). PCA and UMAP reduction, gene feature plots were done by using Seurat as well.
Regulation of retinal differentiation by the BMP pathway was also assessed. Single nucleus RNA-seq (snRNA-Seq) assays were performed to profile and compare the differentiating cells under the SB or SB+DMH1 conditions (FIG. 2d). On day 6, after filtering low quality and dead cells, 8,533 and 9,756 cells in the SB and SB+DMH1 groups were collected, respectively. Uniform manifold approximation and projection (UMAP) clustering identified 11 clusters in both conditions (FIG. 2e). Cell composition in the differentiating cells was very similar among these clusters except cluster neuroepithelial 2 (NE2) and 7 (NE7) (FIGS. 2f-2g). The percentage of cells from different conditions in other clusters was roughly equal to their ratios in the total cells. Cells in most of the clusters expressed neural progenitor makers such as SOX2, NES, MKI67 and GLI3 and EFTFs such as PAX6, RAX, LHX2, SIX3 and OTX2 (FIG. 2g), but not SIX6 in either condition at this time point. […] Among all these clusters, very few differentially expressed genes (DEGs) were identified between the two conditions (FIGS. 9b-9c).
To verify this observation, cells were differentiated with only SB for the first 6 days to generate primitive neuroepithelial cells and then how the BMP pathway regulated retinal differentiation was investigated by treating the cells with or without DMH1 at day 6 (FIG. 2d). Cell nuclei were collected on day 12 for snRNA-Seq to compare differentiating cells in the control (medium without inhibitors) and under DMH1 conditions. After quality control, 12,048 and 27,280 high quality cells were collected from cultured treated under each of these culture conditions, respectively, for snRNA-Seq analysis (results shown in FIGS. 2h-2i). UMAP clustering identified 13 clusters (FIGS. 2h-2j, FIG. 10a). Most of these clusters expressed SOX2, NES, GLI3 and SIX3. […] Ratios of cells from each condition in most clusters were close to their ratios in the total cells except in cluster neural progenitor 6 (NP6), 11 (NP11) and 12 (NP12). […]

H9 ESC line = assay: Immunostaining of VSX2, PAX6, CRX and OPSIN in retina progenitors/organoids; type: cell-based, human; settings: day 20 of differentiation, 10 ng/ml BMP2; FIG. 11d
[2] = BMP2 2 ng/ml on day 6, collected day 12, FIG. 3b
[3] = BMP2 for 4 days starting at day 4, examined at day 12, FIG. 3d

B1: BMP2: bone morphogenic protein variant species; BMP activator (R&D SYSTEMS, 355-BM) (protein, UniProt P12643 283-396, looked up)
Bone morphogenetic protein 2: QAKHKQRKRLKSSCKRHPLYVDFSDVGWNDWIVAPPGYHAFYCHGECPFPLADHLNSTNHAIVQTLVNSVNSKIPKACCVPTELSAISMLYLDENEKVVLKNYQDMVVEGCGCR
- expression of definitive neuroepithelial marker SOX1 [1, 2]: repressing
- expression of retinal lineage genes VSX2, RAX, SIX6 and PAX6 [1, 2]: strongly enhanced
- expression of the definitive neuroepithelial marker SOX1 ([1]; BMP2 10 ng/ml, FIG. 3e): reducing expression
- VSX2 and PAX6 expression ([1]; BMP2 10 ng/ml, FIG. 3e, FIG. 11c): maximum levels
- dose effect on VSX2 and PAX6 expression levels ([1]; BMP2 doses, FIG. 3e, FIG. 11c): increased with higher doses
- expression levels of retinal lineage genes VSX2, PAX6, RAX and SIX6 ([1]; BMP2 for 4 days starting at around day 5-6, examined at day 12, FIG. 11b): peaked
- SOX1 expression [1, 3]: low expression levels
- VSX2 expression [1, 3]: low expression levels
- enhancement of retinal gene expression ([1]; BMP2 for 4 days starting at day 7, examined at day 12, FIG. 11b): diminished
- expression pattern of SOX1 over time ([1]; time course after day 6, SB condition vs BMP2 administration, FIG. 3c): completely blocked
- expression of retina specific marker SIX6 (hPSCs; day 12, BMP2 10 ng/ml after SB, not observed in control or DMH1 condition): began to express in a few clusters
- ID1/2/3/4 expression (activation of BMP pathway) (hPSCs; day 12, BMP2 10 ng/ml vs Control): upregulation
- retina lineage genes SFRP2, PAX6, DALP1, MITF (DEGs) (hPSCs; day 12, BMP vs Control condition, FIG. 13a): up regulated
- PAX6, RAX, SIX3, OTX2, MITF and SIX6 at the subpopulation levels (hPSCs; day 12, BMP vs Control in each cluster, FIG. 5g): up-regulation
- optic vesicle markers VSX2 and MITF (hPSCs; day 12, compared to the Control and DMH1 conditions, FIG. 13b): upregulated
- VSX2 and PAX6 expression by immunostaining (H9 ESC line): enriched
